Test results taken from ChEMBL document CHEMBL1944599, “From libraries to candidate: the discovery of new ultra long-acting dibasic β₂-adrenoceptor agonists” (Bioorg Med Chem Lett, 2012).

Chains of the proteins cited; added tags and fusions are not shown.
UniProt P07550, whole entry: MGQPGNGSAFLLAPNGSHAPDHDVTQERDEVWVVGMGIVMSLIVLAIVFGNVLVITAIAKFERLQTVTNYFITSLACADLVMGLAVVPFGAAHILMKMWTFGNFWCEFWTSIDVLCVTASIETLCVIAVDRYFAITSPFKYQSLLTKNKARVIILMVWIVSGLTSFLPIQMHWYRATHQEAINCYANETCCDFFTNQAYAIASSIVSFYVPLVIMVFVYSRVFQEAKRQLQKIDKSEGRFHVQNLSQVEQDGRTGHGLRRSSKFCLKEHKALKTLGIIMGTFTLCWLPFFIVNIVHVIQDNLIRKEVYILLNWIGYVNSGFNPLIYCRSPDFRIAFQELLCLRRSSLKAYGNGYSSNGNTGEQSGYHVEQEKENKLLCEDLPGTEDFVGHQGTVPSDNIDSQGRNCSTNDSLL
UniProt P08588, whole entry: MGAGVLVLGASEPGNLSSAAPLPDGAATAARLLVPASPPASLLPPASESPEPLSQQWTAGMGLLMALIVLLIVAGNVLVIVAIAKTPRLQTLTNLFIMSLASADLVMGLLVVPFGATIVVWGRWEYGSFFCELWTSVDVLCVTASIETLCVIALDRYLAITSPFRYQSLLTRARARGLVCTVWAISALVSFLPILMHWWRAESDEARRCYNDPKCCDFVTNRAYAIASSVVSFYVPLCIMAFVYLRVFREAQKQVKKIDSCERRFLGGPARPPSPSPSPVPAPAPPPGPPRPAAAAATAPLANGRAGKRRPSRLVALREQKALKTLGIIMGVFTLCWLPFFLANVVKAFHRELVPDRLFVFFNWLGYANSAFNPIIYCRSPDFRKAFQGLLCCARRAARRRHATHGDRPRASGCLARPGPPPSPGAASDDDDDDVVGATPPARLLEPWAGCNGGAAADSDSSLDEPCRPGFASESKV

Key:
[1] = biological target: Beta-2 adrenergic receptor (Homo sapiens, UniProt P07550); assay: Displacement of radiolabeled iodocyanopindolol from recombinant beta2 adrenoceptor
[2] = biological target: Beta-1 adrenergic receptor (Homo sapiens, UniProt P08588); assay: Binding affinity to beta1 adrenoceptor expressed in CHO cells by cAMP accumulation assay; type: functional, cell-based
Cavia porcellus = organism: Cavia porcellus; assay: animal or person

IC50 [1] | EC50 [2] | Compound | ED80 (Cavia porcellus)
6.31 nM | 63.1 nM | COc1ccccc1CNCc1cccc(CCNC[C@H](O)c2ccc(O)c3[nH]c(=O)sc23)c1 | –
2 nM | – | O=c1[nH]c2c(O)ccc([C@@H](O)CNCCc3cccc(CNCc4ccccc4Cl)c3)c2s1 | –
– | – | COc1ccc(CC(C)NCC(O)c2ccc(O)c(NC=O)c2)cc1 (centres undefined) [FORMOTEROL] | 1 µg/kg
